# Measured values taken from PMC8703108, “Identifying of Anti-Thrombin Active Components From Curcumae Rhizoma by Affinity-Ultrafiltration Coupled With UPLC-Q-Exactive Orbitrap/MS” (Frontiers in Pharmacology, 2021).
# Biological target: T1, thrombin (THR, FIIα) (Homo sapiens, UniProt P00734)
# T1 construct: gene F2; human recombinant THR
# Assay: chromogenic substrate S-2238 assay; also affinity ultrafiltration-HPLC with active vs denatured enzyme
# Assay type: biochemical
smiles,measurement,value
CC1CNc2c(cccc2S(=O)(=O)N[C@@H](CCCNC(=N)N)C(=O)N2CC[C@@H](C)C[C@@H]2C(=O)O)C1 (stereo partly shown) [argatroban],IC50,243 nM
